Measurements published in US11000601B2, “Conjugated biological molecules, pharmaceutical compositions and methods” (OBI Pharma, Inc., priority 2016, dated 2021).

Assays:
[1] = Body weight, mortality and signs of overt toxicity in NCI-H526 implanted female nu/nu mice; format: in vivo, mouse; conditions: group mean
Description: In a xenograft tumor model of human small cell lung cancer, viable NCI-H526 stage E carcinoma; variant small cell lung cancer cells (ATCC CRL-5811), were subcutaneously (SC) implanted (1×10^6 cells with matrigel (1:0.8) in 0.2 mL/mouse) into the right flank of female nu/nu mice. Tumor implanted mice were divided into five treatment groups, each group containing eight animals, and test agent administrations were initiated one day after cell implantation (denoted as Day 1).
Female nu/nu nude, aged 6-7 weeks, were obtained from BioLasco Taiwan (under Charles River Laboratories Licensee) and used. The animals were housed in individually ventilated cages (IVC, 36 Mini Isolator system). The allocation for 5 animals was 27×20×14 in cm. All animals were maintained in a hygienic environment under controlled temperature (20-24° C.) and humidity (30-70%) with 12-hour light/dark cycle. Free access to standard lab diet [MFG (Oriental Yeast Co., Ltd., Japan)] and autoclaved tap water were granted. All aspects of this work including housing, experimentation, and animal disposal were performed in general accordance with the “Guide for the Care and Use of Laboratory Animals: Eighth Edition” (National Academies Press, Washington, D.C., 2011) in our AAALAC-accredited laboratory animal facility. In addition, the animal care and use protocol was reviewed and approved by the IACUC at Eurofins Panlabs Taiwan, Ltd.
The tumor volumes, body weights, mortality, and signs of overt toxicity were monitored and recorded twice weekly for 45 days. Tumor growth inhibition was calculated as T/C (treatment/control)×100%. A T/C value≤42% compared to that of the vehicle control group was considered significant anti-tumor activity. Two-way ANOVA followed by Bonferroni test was used to ascertain the statistically significant significance of groups compared to respective vehicle control (*p<0.05).

[2] = Body weight in male BALB/c nude mice bearing HPAC established tumors; conditions: QW x 4, ADC (OBI-999) and OBI-888 10 mg/kg IV, MMAE 0.191 mg/kg IP; for Body weight: individual animals; for Body Weight (g), Mean: group mean

Q: What does the source list for `CC[C@H](C)[C@@H]([C@@H](CC(=O)N1CCC[C@H]1[C@H](OC)[C@@H](C)C(=O)N[C@H](C)[C@@H](O)c1ccccc1)OC)N(C)C(=O)[C@@H](NC(=O)[C@@H](NC)C(C)C)C(C)C` [MMAE, monomethyl auristatin E]?
A: Body Weight (g), Mean ([1]; Day 8, NCI-H526 xenograft, female nu/nu mice, OBI-999/OBI-888 10 mg/kg IV, MMAE 0.191 mg/kg IP, once weekly x 4): 24.5 g; Body Weight (g), Mean ([1]; Day 11, NCI-H526 xenograft, female nu/nu mice, OBI-999/OBI-888 10 mg/kg IV, MMAE 0.191 mg/kg IP, once weekly x 4): 24.9 g; Body Weight (g), Mean ([1]; Day 22, NCI-H526 xenograft, female nu/nu mice, OBI-999/OBI-888 10 mg/kg IV, MMAE 0.191 mg/kg IP, once weekly x 4): 25.5 g; Body Weight (g), Mean ([1]; Day 25, NCI-H526 xenograft, female nu/nu mice, OBI-999/OBI-888 10 mg/kg IV, MMAE 0.191 mg/kg IP, once weekly x 4): 26.5 g; Body Weight (g), Mean ([1]; Day 29, NCI-H526 xenograft, female nu/nu mice, OBI-999/OBI-888 10 mg/kg IV, MMAE 0.191 mg/kg IP, once weekly x 4): 27.6 g; Body Weight (g), Mean ([1]; Day 36, NCI-H526 xenograft, female nu/nu mice, OBI-999/OBI-888 10 mg/kg IV, MMAE 0.191 mg/kg IP, once weekly x 4): 28.9 g; Body Weight (g), Mean ([1]; Gr. 8, 0.191 mg/kg × 4 IP once weekly, Day 57): 26.4 g; Body Weight (g), Mean ([1]; Gr. 8, 0.191 mg/kg × 4 IP once weekly, Day 60): 26.9 g; Body Weight (g), Mean ([1]; Gr. 8, 0.191 mg/kg × 4 IP once weekly, Day 67): 27.3 g; Body Weight (g), Mean ([1]; Gr. 8, 0.191 mg/kg × 4 IP once weekly, Day 70): 26.4 g; Body Weight (g), Mean ([1]; Gr. 8, 0.191 mg/kg × 4 IP once weekly, Day 74): 26.6 g; Body Weight (g), Mean ([1]; Gr. 8, 0.191 mg/kg × 4 IP once weekly, Day 78): 27.3 g; Body Weight (g), Mean ([1]; Gr. 8, 0.191 mg/kg × 4 IP once weekly, Day 81): 26.9 g; Body Weight (g), Mean ([1]; Gr. 8, 0.191 mg/kg × 4 IP once weekly, Day 85): 26.9 g; Body Weight (g), Mean ([1]; Gr. 8, 0.191 mg/kg × 4 IP once weekly, Day 88): 27.1 g; Body Weight (g), Mean ([1]; Gr. 8, 0.191 mg/kg × 4 IP once weekly, Day 91): 27.3 g; Body Weight (g), Mean ([1]; Gr. 8, 0.191 mg/kg × 4 IP once weekly, Day 95): 27.4 g; Body Weight (g), Mean ([1]; Gr. 8, 0.191 mg/kg × 4 IP once weekly, Day 98): 27.6 g; Body weight ([2]; Day 0): 24.3 g and 24.8 g and 24.5 g; Body weight ([2]; Day 4): 24.9 g and 23.7 g; Body weight ([2]; Day 7): 25.2 g; Body Weight (g), Mean ([2]; Day 9): 24.3 g; Body weight ([2]; Day 9): 24.9 g (2×) and 25.9 g and 23.5 g; Body Weight (g), Mean ([2]; Day 10): 25.5 g; Body weight ([2]; Day 10): 25.9 g and 26.3 g and 25.3 g and 24.1 g; Body Weight (g), Mean ([2]; Day 14): 25.3 g; Body weight ([2]; Day 14): 25.7 g and 26.2 g and 24.5 g; Body Weight (g), Mean ([2]; Day 17): 24.6 g; Body weight ([2]; Day 17): 24.5 g and 25.3 g; Body Weight (g), Mean ([2]; Day 21): 25.2 g; Body weight ([2]; Day 21): 25.6 g and 26.2 g and 24.7 g and 25.7 g; Body Weight (g), Mean ([2]; Day 24): 24.9 g; Body weight ([2]; Day 24): 24.8 g and 25.7 g and 24.9 g and 25.6 g and 23.7 g; Body weight ([2]; Day 28): 26.2 g and 25.3 g and 24.9 g and 26.3 g and 24.1 g; Body Weight (g), Mean ([2]; Day 31): 25.2 g; Body weight ([2]; Day 31): 25.2 g and 26.4 g and 24.1 g; Body weight ([2]; Day 35): 26.9 g and 25.6 g (2×) and 24.5 g; Body Weight (g), Mean ([2]; Day 37): 25.7 g; Body weight ([2]; Day 37): 25.3 g and 25.5 g and 27.1 g

Values joined by “and” are separate entries in the source; they are usually repeats but may differ in a detail not shown here. Equal entries are not always repeated.
